The source of these data is ChEMBL document CHEMBL1240340, “Targeted polypharmacology: discovery of dual inhibitors of tyrosine and phosphoinositide kinases” (Nat Chem Biol, 2008).

The structures appear in SMILES notation. pIC50: −log10 of the molar value.

In the first assay the target is Phosphatidylinositol 4,5-bisphosphate 3-kinase catalytic subunit beta isoform (Homo sapiens, UniProt P42338).
Take `Cn1nc(-c2cccc(-c3ccccc3)c2)c2c(N)ncnc21`: the pIC50 (commonly −log10 of the IC50, conventionally taken in molar units) was less than 4.30. Still for that read-out and setting: in the case of `Cn1nc(-c2ccc(OCc3ccccc3)cc2)c2c(N)ncnc21` it was less than 4.30.

In the next assay the target is Tyrosine-protein kinase HCK (Homo sapiens, UniProt P08631).
`CC(C)n1nc(-c2cc(F)c3cn[nH]c3c2)c2c(N)ncnc21` gave a pIC50 of 7.12.

The next assay has as its target Serine/threonine-protein kinase mTOR (Homo sapiens, UniProt P42345).
`COc1ccc(-c2nn(C(C)C)c3ncnc(N)c23)cc1OC` had a pIC50 of 5.51. `CC(C)n1nc(-c2cc(O)cc(Br)c2)c2c(N)ncnc21`: the pIC50 was 4.52.

`CC(C)n1nc(-c2ccc3cc[nH]c3c2)c2c(N)ncnc21` gave a pIC50 of 6.33. As for `CC(C)n1nc(-c2ccc3c(ccn3C)c2)c2c(N)ncnc21`, the pIC50 was 6.34. Take `Nc1ncnc2c1c(-c1ccc3[nH]ncc3c1)nn2C1CCCC1`: the pIC50 was 5.96. The same measure, in the same setting: to `CC(C)n1nc(-c2cnc3ccccc3c2)c2c(N)ncnc21` belongs 5.72; to `Nc1ncnc2c1c(-c1ccc(Cl)c(O)c1)nn2C1CCC1`, 6.64; to `CC(C)n1nc(-c2ccc(C#N)nc2)c2c(N)ncnc21`, 5.24. Same read-out and setting: in the case of `COc1ccc(-c2nn(C(C)(C)C)c3ncnc(N)c23)cc1OC` it was less than 4.30; in that of `Cn1nc(-c2ccc3occc(=O)c3c2)c2c(N)ncnc21`, less than 4.30; in that of `CC(C)n1nc(-c2ccc3ccncc3c2)c2c(N)ncnc21`, 5.82. Same read-out and setting: to `CC(C)n1nc(-c2cccc(C#N)c2)c2c(N)ncnc21` belongs 4.40. Consider `CC(C)n1nc(-c2cccc(NS(C)(=O)=O)c2)c2c(N)ncnc21`, for which the pIC50 is 5.30.

`CC(C)n1nc(-c2ccc3c(N)n[nH]c3c2)c2c(N)ncnc21` showed a pIC50 of 5.79. `Nc1ccc(-c2nn(C3CCCC3)c3ncnc(N)c23)cc1O` showed a pIC50 of 6.04. Molecule `Nc1ncnc2c1c(-c1ccc3[nH]ccc3c1)nn2C1CCCC1` gave a pIC50 of 6.39.

As for `Nc1ncnc2c1c(-c1cc(O)cc(F)c1)nn2C1CCCC1`, the pIC50 was 5.00. Turning to `CC(C)n1nc(-c2ccc(O)cc2)c2c(N)ncnc21`, the pIC50 is 5.22. On the same count and under the same terms, in the case of `CC(C)n1nc(-c2cccnc2)c2c(N)ncnc21` it was 5.26. As for `CC(C)(C)OC(=O)n1ccc2cc(-c3nn(C4CCCC4)c4ncnc(N)c34)ccc21`, the pIC50 was 6.24. `Nc1ncnc2c1c(-c1ccc(Cl)c(O)c1)nn2CC1CCCNC1` (stereo not given) showed a pIC50 of 5.49. In the case of `CCOc1ccc(-c2nn(C3CCCC3)c3ncnc(N)c23)cc1O`, the pIC50 was 6.96.

With `COc1ccc(-c2nn(C3CNC3)c3ncnc(N)c23)cc1O`, the pIC50 was 5.29. On to `CC(C)n1nc(-c2ccc3occc(=O)c3c2)c2c(N)ncnc21`, for which the pIC50 is 5.89.

Take `Cc1ccc2cc(-c3nn(C(C)C)c4ncnc(N)c34)ccc2n1`: the pIC50 was 6.25. In the case of `CC(C)n1nc(-c2cccc(CO)c2)c2c(N)ncnc21`, the pIC50 was 5.27. On to `Cn1nc(-c2ccc(Br)c(O)c2)c2c(N)ncnc21`, for which the pIC50 was 6.26.

Molecule `CCOc1ccc(-c2nn(C3CCCC3)c3ncnc(N)c23)cc1OC` gave a pIC50 of 5.19. The molecule `CC(C)n1nc(-c2ccc3nccnc3c2)c2c(N)ncnc21` had a pIC50 of 6.20.

As to `CC(C)n1nc(-c2ccc3cnccc3c2)c2c(N)ncnc21`, the negative logarithm of the IC50 (pIC50) is 5.66. The same measure, in the same setting: to `Nc1ncnc2c1c(-c1ccc(F)c(O)c1)nn2C1CCC1` belongs 5.82; to `CC(C)n1nc(-c2ccc3cc(O)ccc3c2)c2c(N)ncnc21`, 6.96.

Consider `CC(C)n1nc(-c2cnc3nccnc3c2)c2c(N)ncnc21`, for which the pIC50 is 5.17. `CC(C)n1nc(-c2ccc3nccc(NC(=O)OC(C)(C)C)c3c2)c2c(N)ncnc21`: the pIC50 was 5.49. With `N#CCCCCn1nc(-c2ccc(F)c(O)c2)c2c(N)ncnc21`, the pIC50 is 6.08. In turn, `Nc1ncnc2c1c(-c1ccc3occc3c1)nn2C1CCCC1` gave a negative logarithm of the IC50 (pIC50) of 5.80. Still for that read-out and setting: in the case of `CC(C)n1nc(-c2ccc3nc[nH]c(=O)c3c2)c2c(N)ncnc21` it was 7.70. Regarding `Nc1ncnc2c1c(-c1ccc(Cl)c(O)c1)nn2CC1CCCN1` (stereo not given), the pIC50 was 4.82. In turn, `COc1ccc(-c2nn(C3CCC(C)C3)c3ncnc(N)c23)cc1O` (stereo not given) had a pIC50 of 6.77. For `CC(C)n1nc(-c2ccn3ccnc3c2)c2c(N)ncnc21`, the pIC50 was 5.12. For `C[C@H](CN)n1nc(-c2ccc(F)c(O)c2)c2c(N)ncnc21`, the pIC50 is 4.96.

Turning to `CC(C)n1nc(-c2ccc3occc3c2)c2c(N)ncnc21`, the pIC50 was 5.47. For the molecule `Cc1ccc(-c2nn(C)c3ncnc(N)c23)cc1O`, the pIC50 was 6.06. In turn, `C[C@@H](CN)n1nc(-c2ccc(F)c(O)c2)c2c(N)ncnc21` had a pIC50 of 5.54. On the same count and under the same terms, to `CC(C)n1nc(-c2cc(F)c3cn[nH]c3c2)c2c(N)ncnc21` belongs 5.15.

Take `Nc1ncnc2c1c(-c1ccc(Cl)c(O)c1)nn2C1CCCC1`: the pIC50 was 6.36. The molecule `CC(C)n1nc(-c2cnc3[nH]ccc3c2)c2c(N)ncnc21` showed a pIC50 of 7.22. In turn, `CC(C)n1nc(-c2ccc3nc(N)ccc3c2)c2c(N)ncnc21` gave a pIC50 of 7.48. `CC(C)n1nc(-c2cc(F)c(O)cc2F)c2c(N)ncnc21` showed a pIC50 of 5.95. Take `Nc1ncnc2c1c(-c1ccc(Cl)c(O)c1)nn2CC1CCNC1` (stereo not given): the pIC50 was 5.32. Molecule `Nc1ncnc2c1c(-c1ccc3cn[nH]c3c1)nn2C1CCCC1` had a pIC50 of 6.22. `Nc1ncnc2c1c(-c1ccc(F)c(O)c1)nn2C1CCCCCC1` gave a pIC50 of 5.96.
